Results on two compounds are retold here after patent US4554367A, “Phosphonium organohalogenostannates-IV” (priority 1982, dated 1985).

What all share (type): cell-based
Assay [1] deals with Proteus vulgaris. The assay can be described thus: MIC against bacteria, strain A. Particulars: 24 h, 30° C., tested at 100 or 300 mg/liter. The protocol:
(§1) Determination of the minimum inhibitory concentration (MIC) against bacteria
(§2) ONCs (cultures incubated overnight) of the bacteria strains A-F grown in Caso-Peptone broth (Merck) are each diluted […] in saline. An amount of the suspension is introduced into Caso-Peptone broth such that the bacteria are again diluted 1:1,000. The cultures are treated with 100 or 300 mg/liter of the phosphonium stannates shown in Table B. After incubation at 30° C. in a shaking water bath for 24 hours, the cultures are evaluated on the basis of cloudiness. The MIC is the concentration at which the broth is not clouded by bacterial growth.

The subject of assay [2] is Pseudomonas aeruginosa. As to the kind of experiment: MIC against bacteria, strain B. The settings on record: 24 h, 30° C., tested at 100 or 300 mg/liter. The protocol:
as §1, §2

In assay [3] the test system is Enterobacter aerogenes. As to the kind of experiment: MIC against bacteria, strain C. Particulars: 24 h, 30° C., tested at 100 or 300 mg/liter. The protocol:
as §1, §2

In assay [4] the test system is Serratia marcenscens. The assay can be described thus: MIC against bacteria, strain D. Particulars: 24 h, 30° C., tested at 100 or 300 mg/liter. The protocol:
as §1, §2

The subject of assay [5] is Alkaligenes denitrificans. As to the kind of experiment: MIC against bacteria, strain E. The settings on record: 24 h, 30° C., tested at 100 or 300 mg/liter. The protocol:
as §1, §2

Assay [6] relates to Bacillus subtilis. The assay can be described thus: MIC against bacteria, strain F. Particulars: 24 h, 30° C., tested at 100 or 300 mg/liter. The protocol: as §1, §2
Assay [7] has as its system Aspergillus niger. The assay can be described thus: MIC against fungi, strain G. Particulars: malt extract agar. The protocol: (§3) Determination of the minimum inhibitory concentration (MIC) against fungi
(§4) The investigation is carried out in malt extract agar (Merck) by the known agar incorporation test using the fungi
(§5) For inhibition, the various compounds are in each case added in amounts such that concentrations of […] results in the agar. The concentrations (mg/liter) required for inhibition of the growth of the fungi (starting from traces of fungi dripped on) are illustrated in Table D.

Assay [8] concerns Aspergillus phoenicia. The assay can be described thus: MIC against fungi, strain H. Particulars: malt extract agar. The protocol:
as §3, §4, §5

In assay [9] the test system is Penicillium funiculosum. The assay can be described thus: MIC against fungi, strain I. Particulars: malt extract agar. The protocol: as §3, §4
I Penicillium funiculosum
as §5

Assay [10] deals with Alternaria alternata. The assay can be described thus: MIC against fungi, strain J. Particulars: malt extract agar. The protocol:
as §3, §4, §5

Assay [11] concerns Candida albicans. The assay can be described thus: MIC against fungi, strain L. The settings on record: malt extract agar. The protocol:
as §3, §4, §5

Assay [12] has as its system Endomyces geotrichum. The assay can be described thus: MIC against fungi, strain M. The settings on record: malt extract agar. The protocol: as §3, §4, §5
For assay [13], the system named is Chaetomium globosum. The assay can be described thus: MIC against fungi, strain O. Particulars: malt extract agar. The protocol:
as §3, §4, §5

Assay [14] concerns Chlorella vulgaris. The assay can be described thus: Action against Chlorella vulgaris. Set-up: key to Growth in the medium: 1: no growth in the medium, 3 ppm have a growthinhibiting action; key to Growth on the agar: 2: no growth on the agar, 3 ppm have destroyed the algae within 6 hours. The settings on record: 3 mg/liter; for Growth on the agar: 6 hours exposure (algae-destruction action); for Growth in the medium: 14 days (inhibition of growth). The protocol:
Determination of the action against algae
A Chlorella vulgaris culture grown for 14 days in algae nutrient medium is diluted 1:200 in algae nutrient medium. Each of the compounds listed in Table E is then added such that a concentration of 3 mg/liter results. After incubation for 6 hours, 10 μl are in each case withdrawn and dripped onto algae agar in order to determine the destructive action. After incubation for 14 days with illumination (14 hours light/10 hours dark cycle), the growth in the algae medium (determination of the inhibition of growth) on the algae agar (determination of the algae-destruction action) is evaluated visually.

For orientation: MIC means the lowest concentration that inhibits growth of the organism. Regarding `CCCCCCCCCCCCCC[P+](CCCC)(CCCC)CCCC.[F][Sn-]([Cl])([c]1ccccc1)([c]1ccccc1)[c]1ccccc1` [Example 37], the MIC in assay [1], in [2], in assay [3], in assay [4], in [5] and in [6] was 100 µg/mL throughout. Moreover, the MIC against fungi in [7], in assay [8], in assay [9], in assay [10], in assay [11] and in assay [12] was 10 µg/mL in each case. For the same compound, the MIC against fungi in assay [13] came to 10 µg/mL. Further, the “Growth on the agar” value in [14] was 2. Besides, in assay [14], the “Growth in the medium” value worked out at 1.
With `CCCCCCCCCCCCCC[P+](CCCC)(CCCC)CCCC.CCC[CH2][Sn-]([F])([Cl])([CH2]CCC)[CH2]CCC` [Example 27], the minimal inhibitory concentration (MIC) in assay [1], in assay [2], in assay [3], in [4], in [5] and in [6] was 100 µg/mL each time. Besides, the MIC against fungi in assay [7], in [8], in assay [9], in assay [10], in assay [11] and in assay [12] was 10 µg/mL in each case. For the same compound, the MIC against fungi in assay [13] turned out to be 10 µg/mL. The “Growth on the agar” value in [14] turned out to be 2. Moreover, in [14], the “Growth in the medium” value turned out to be 1.
